Measured values taken from article PMC7730441, “Acetylcholinesterase and butyrylcholinesterase inhibitory activities of khellactone coumarin derivatives isolated from Peucedanum japonicum Thurnberg” (Scientific Reports, 2020).

The chains behind the UniProt entries cited, without tags or fusion partners. Residues count along the entry.
UniProt P81908, whole entry: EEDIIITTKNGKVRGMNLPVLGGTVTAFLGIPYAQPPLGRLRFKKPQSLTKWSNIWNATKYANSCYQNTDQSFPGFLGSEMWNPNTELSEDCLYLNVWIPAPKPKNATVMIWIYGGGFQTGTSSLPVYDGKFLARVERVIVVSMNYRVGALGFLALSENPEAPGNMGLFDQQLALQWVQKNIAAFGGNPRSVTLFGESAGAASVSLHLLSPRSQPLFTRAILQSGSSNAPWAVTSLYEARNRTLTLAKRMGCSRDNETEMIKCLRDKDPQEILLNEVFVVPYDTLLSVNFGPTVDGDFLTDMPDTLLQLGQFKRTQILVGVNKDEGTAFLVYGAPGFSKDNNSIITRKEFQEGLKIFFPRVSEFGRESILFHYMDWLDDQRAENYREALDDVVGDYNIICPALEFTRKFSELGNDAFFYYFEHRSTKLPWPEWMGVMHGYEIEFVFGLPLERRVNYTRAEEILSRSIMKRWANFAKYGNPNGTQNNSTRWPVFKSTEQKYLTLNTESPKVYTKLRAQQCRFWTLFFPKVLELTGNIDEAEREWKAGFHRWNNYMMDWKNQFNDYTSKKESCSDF
UniProt O42275, 24-633: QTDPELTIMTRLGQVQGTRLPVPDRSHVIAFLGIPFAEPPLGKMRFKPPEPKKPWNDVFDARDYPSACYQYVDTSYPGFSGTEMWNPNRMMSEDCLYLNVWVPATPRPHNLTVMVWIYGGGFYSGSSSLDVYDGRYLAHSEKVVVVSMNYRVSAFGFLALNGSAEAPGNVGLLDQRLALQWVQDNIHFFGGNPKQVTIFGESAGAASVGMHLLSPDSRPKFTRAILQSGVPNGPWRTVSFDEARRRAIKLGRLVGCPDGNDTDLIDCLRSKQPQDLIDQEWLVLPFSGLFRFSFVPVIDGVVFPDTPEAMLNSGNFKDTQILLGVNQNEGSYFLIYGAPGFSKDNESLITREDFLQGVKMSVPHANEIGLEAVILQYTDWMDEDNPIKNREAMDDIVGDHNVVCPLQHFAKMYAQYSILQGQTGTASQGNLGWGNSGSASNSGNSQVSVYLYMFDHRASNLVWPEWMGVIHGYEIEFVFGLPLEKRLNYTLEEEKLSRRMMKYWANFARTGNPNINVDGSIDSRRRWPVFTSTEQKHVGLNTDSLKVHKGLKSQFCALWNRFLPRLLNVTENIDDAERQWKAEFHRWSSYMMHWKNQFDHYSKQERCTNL

Assays:
[1] = molecular target: T1, BChE (from equine serum) (Equus caballus, UniProt P81908); assay type: biochemical; conditions: read-out: IC50 (µM) BChE; 15 min preincubation
T1 construct: BChE (from equine serum); purchased Sigma-Aldrich; host or cells: equine serum
Protocol: (§1) AChE assays were performed as described by Ellman et al.[41] with slight modifications. […] DTNB was used for color development, caused by reaction between it and thiocholine (a product of AChE). For inhibitory assays, compounds were preincubated with AChE for 15 min prior to ATCI and DTNB addition. BChE activity was assayed using the same method, but BTCI was used instead of ATCI.
(§2) Inhibitions of the activities of AChE, BChE, MAO-A, and MAO-B by the 15 compounds were investigated at an inhibitor concentration of 10 µM. IC50 values were also determined. […] The inhibition types and Ki values were determined using Lineweaver–Burk Plots and secondary plots.

[2] = molecular target: T2, AChE (Type VI-S; from Electrophorus electricus) (Electrophorus electricus, UniProt O42275); assay type: biochemical; conditions: read-out: IC50 (µM) AChE; 15 min preincubation
T2 construct: AChE (Type VI-S; from Electrophorus electricus); purchased Sigma-Aldrich Type VI-S (catalogue number not given)
Protocol: as §1, §2

## Pteryxin [PJ2]
[1]
  IC50: > 40 µM
[2]
  IC50: > 40 µM
